ChEMBL document CHEMBL1156086, “Discovery and optimization of CRTH2 and DP dual antagonists” (Bioorg Med Chem Lett, 2009)

Target: T1, Chemoattractant receptor-homologous molecule expressed on Th2 cells (Cavia porcellus, UniProt Q56D28)
T1 sequence (Q56D28 whole entry): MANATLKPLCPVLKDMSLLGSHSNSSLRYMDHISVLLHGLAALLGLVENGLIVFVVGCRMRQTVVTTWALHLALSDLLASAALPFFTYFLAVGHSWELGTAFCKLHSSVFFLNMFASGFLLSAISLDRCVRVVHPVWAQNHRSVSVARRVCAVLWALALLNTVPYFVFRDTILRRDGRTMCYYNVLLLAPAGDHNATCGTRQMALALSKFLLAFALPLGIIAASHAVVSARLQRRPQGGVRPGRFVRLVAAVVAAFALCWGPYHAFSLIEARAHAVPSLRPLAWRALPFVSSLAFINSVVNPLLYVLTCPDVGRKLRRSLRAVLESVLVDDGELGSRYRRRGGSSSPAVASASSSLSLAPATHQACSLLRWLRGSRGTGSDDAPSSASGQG
Assay: Displacement of [3H]-PGD2 from guinea pig CRTH2 receptor expressed in HEK293 cells
Format: cell-based

- IC50: 3 nM
SMILES: CCCCNC(=O)c1ccc(Oc2ccc(CC(=O)O)cc2OC)c(NS(=O)(=O)c2ccc(Cl)cc2Cl)c1
